Literature values, collected in PMC10091413, “Modeling the Orthosteric Binding Site of the G Protein-Coupled Odorant Receptor OR5K1” (Journal of Chemical Information and Modeling, 2023).

Biological target: T1, OR5K1 (Homo sapiens, UniProt Q8NHB7)
T1 construct: The protein-coding region of human OR5K1 (NM_001004736.3); IL-6-HaloTag (from expression plasmid pFN210A) (N); expressed in transfected cells; host or cells: HEK-293
T1 sequence (Q8NHB7 1-308): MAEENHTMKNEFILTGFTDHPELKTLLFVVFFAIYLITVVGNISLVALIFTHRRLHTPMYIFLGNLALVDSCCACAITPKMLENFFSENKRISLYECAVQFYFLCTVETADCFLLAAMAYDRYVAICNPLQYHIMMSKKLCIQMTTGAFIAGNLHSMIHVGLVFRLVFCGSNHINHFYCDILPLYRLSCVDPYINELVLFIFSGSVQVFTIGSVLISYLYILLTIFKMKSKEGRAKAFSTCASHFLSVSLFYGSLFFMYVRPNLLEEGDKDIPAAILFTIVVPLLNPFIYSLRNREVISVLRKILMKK
Set-up: method as in PMID 34047404
Settings: OR5K1 agonist activity; data retrieved from the literature; cited from earlier work

COc1nccnc1CC(C)C [Compound 8, 2-Isobutyl-3-methoxypyrazine]
EC50: 178 ± 24.9 µM
